# Assay results from publication PMC10350927 (Journal of Medicinal Chemistry, 2023).
# Where a name gives a salt, the structure may show the parent alone.
# Target: T1, mSUCNR1 (Mus musculus, UniProt Q99MT6)
# T1 sequence (Q99MT6 1-317): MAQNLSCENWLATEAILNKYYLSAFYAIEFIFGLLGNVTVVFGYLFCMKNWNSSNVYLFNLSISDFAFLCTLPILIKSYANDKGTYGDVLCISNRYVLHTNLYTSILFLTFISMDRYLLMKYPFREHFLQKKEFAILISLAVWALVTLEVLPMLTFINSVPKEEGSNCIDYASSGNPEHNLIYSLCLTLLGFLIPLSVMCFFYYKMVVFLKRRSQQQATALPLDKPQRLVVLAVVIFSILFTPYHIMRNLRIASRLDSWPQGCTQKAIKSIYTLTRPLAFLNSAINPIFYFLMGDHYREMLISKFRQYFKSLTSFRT
# Test: cAMP assay, agonist potency at mSUCNR1
# Type: cell-based
# Parameters: expressed in transfected cells; host or cells: Flp-In T-REx 293
# Conditions: Flp-In T-REx 293 cells
row,SMILES,Emax
1,"CC(C)(C)OC(=O)NCCCCCCOc1ccc(-c2ccc(C(=O)N[C@@H](CC(=O)O)C(=O)O)o2)cc1 [Compound 8d, (5-(4-((6-((tert-Butoxycarbonyl)amino)hexyl)oxy)phenyl)furan-2-carbonyl)-L-aspartic acid]",92%
2,"NCCCCCOc1ccc(-c2ccc(C(=O)N[C@@H](CC(=O)O)C(=O)O)o2)cc1 [Compound 9c, (S)-5-(4-(5-((1,2-Dicarboxyethyl)carbamoyl)furan-2-yl)phenoxy)pentan-1-aminium 2,2,2-trifluoroacetate]",102%
3,"CC(C)(C)OC(=O)NCCCOc1ccc(-c2cccc(C(=O)N[C@@H](CC(=O)O)C(=O)O)n2)cc1 [Compound 15a, (6-(4-(3-((tert-Butoxycarbonyl)amino)propoxy)phenyl)picolinoyl)-L-aspartic acid]",79%
4,"NCCCCOc1ccc(-c2ccc(C(=O)N[C@@H](CC(=O)O)C(=O)O)o2)cc1 [Compound 9b, (5-(4-(4-Aminobutoxy)phenyl)furan-2-carbonyl)-L-aspartic acid hydrochloride]",113%
5,"CNCCCCCCOc1ccc(-c2ccc(C(=O)N[C@@H](CC(=O)O)C(=O)O)o2)cc1 [Compound 20, (S)-6-(4-(5-((1,2-Dicarboxyethyl)carbamoyl)furan-2-yl)phenoxy)-N-methylhexan-1-aminium 2,2,2-trifluoroacetate]",103%
6,"CC(C)(C)OC(=O)NCCCCOc1ccc(-c2cccc(C(=O)N[C@@H](CC(=O)O)C(=O)O)n2)cc1 [Compound 15b, (6-(4-(4-((tert-Butoxycarbonyl)amino)butoxy)phenyl)picolinoyl)-L-aspartic acid]",75%
7,"NCCCOc1ccc(-c2ccc(C(=O)N[C@@H](CC(=O)O)C(=O)O)o2)cc1 [Compound 9a, (S)-3-(4-(5-((1,2-Dicarboxyethyl)carbamoyl)furan-2-yl)phenoxy)propan-1-aminium 2,2,2-trifluoroacetate]",105%
8,"CC(C)(C)OC(=O)NCCCOc1ccc(-c2ccc(C(=O)N[C@@H](CC(=O)O)C(=O)O)o2)cc1 [Compound 8a, (5-(4-(3-((tert-Butoxycarbonyl)amino)propoxy)phenyl)furan-2-carbonyl)-L-aspartic acid]",93%
9,"CC(C)(C)OC(=O)NCCOCCOc1ccc(-c2cccc(C(=O)N[C@@H](CC(=O)O)C(=O)O)n2)cc1 [Compound 15e, (6-(4-(2-(2-((tert-Butoxycarbonyl)amino)ethoxy)ethoxy)phenyl)picolinoyl)-L-aspartic acid]",86%
10,"O=C(O)C[C@H](NC(=O)c1ccc(-c2ccc(OCCCCCCNCCNc3ccc([N+](=O)[O-])c4nonc34)cc2)o1)C(=O)O [Compound 22, (S)-6-(4-(5-((1,2-Dicarboxyethyl)carbamoyl)furan-2-yl)phenoxy)-N-(2-((7-nitrobenzo[c][1,2,5]oxadiazol-4-yl)amino)ethyl)hexan-1-aminium 2,2,2-trifluoroacetate]",110%
11,"CN(C)CCCCCCOc1ccc(-c2ccc(C(=O)N[C@@H](CC(=O)O)C(=O)O)o2)cc1 [Compound 21, (S)-6-(4-(5-((1,2-Dicarboxyethyl)carbamoyl)furan-2-yl)phenoxy)-N,N-dimethylhexan-1-aminium 2,2,2-trifluoroacetate]",98%
12,"CC(C)(C)OC(=O)NCCCCOc1ccc(-c2ccc(C(=O)N[C@@H](CC(=O)O)C(=O)O)o2)cc1 [Compound 8b, (5-(4-(4-((tert-Butoxycarbonyl)amino)butoxy)phenyl)furan-2-carbonyl)-L-aspartic acid]",89%
13,"O=C(O)C[C@H](NC(=O)c1cccc(-c2ccc(OC(F)(F)F)cc2)n1)C(=O)O [Compound 3, reference compound]",75%
14,"CC(C)(C)OC(=O)NCCNCCCCCCOc1ccc(-c2ccc(C(=O)N[C@@H](CC(=O)O)C(=O)O)o2)cc1 [Compound 17, (S)-N-(2-((tert-Butoxycarbonyl)amino)ethyl)-6-(4-(5-((1,2-dicarboxyethyl)carbamoyl)furan-2-yl)phenoxy)hexan-1-aminium 2,2,2-trifluoroacetate]",101%
15,"CC(C)(C)OC(=O)NCCCCCCOc1ccc(-c2cccc(C(=O)N[C@@H](CC(=O)O)C(=O)O)n2)cc1 [Compound 15d, (6-(4-((6-((tert-Butoxycarbonyl)amino)hexyl)oxy)phenyl)picolinoyl)-L-aspartic acid]",74%
16,"CC(C)(C)OC(=O)NCCCCCOc1ccc(-c2cccc(C(=O)N[C@@H](CC(=O)O)C(=O)O)n2)cc1 [Compound 15c, (6-(4-((5-((tert-Butoxycarbonyl)amino)pentyl)oxy)phenyl)picolinoyl)-L-aspartic acid]",84%
17,"CC(C)(C)OC(=O)NCCCCCOc1ccc(-c2ccc(C(=O)N[C@@H](CC(=O)O)C(=O)O)o2)cc1 [Compound 8c, (5-(4-((5-((tert-Butoxycarbonyl)amino)pentyl)oxy)phenyl)furan-2-carbonyl)-L-aspartic acid]",84%
